Measurements as given in patent US12382888B2, “Compositions and methods for modulating immunity in plants” (Boyce Thompson Institute for Plant Research, Inc., priority 2013, dated 2025).

Columns and labels:
PR-1, FRK1, PHI1, WRKY53 = experiment: Defense gene expression in Arabidopsis roots (qRT-PCR); settings: 300 nM; 6 hours
PR-1 = PR-1 protein/transcript induction in tobacco leaves (immunoblot, RT-PCR)

For CC1O[C@@H](O[C@@H](C)CCCCCCCCC(=O)O)C(O)C[C@H]1O (stereo in doubt) [ascr #18, (10R)-(3′R,5′R-dihydroxy-6′S-methyl-(2H)-tetrahydropyran-2-yloxy)-undecanoic Acid], which “root expression of PHI1, FRK1, and WRKY53” value (PR-1, FRK1, PHI1, WRKY53) is on record?
The value was “no effect or reduced expression”.

And the “SA-induced PR-1 accumulation” value (PR-1; ascr #18 10 μM with 50 μM SA, leaf infiltration)?
Its value is “appeared to inhibit the ability of 50 μM SA to induce low-level PR-1 accumulation”.

What about the “PR-1 accumulation in presence of SA” value (PR-1; ascr #18 0.01 or 0.3 μM with SA 500 μM or 50 μM, leaf infiltration, vs SA only) of the same compound?
The value was “enhanced SA induction of PR-1 protein production”.

What about the “SA-mediated induction of PR-1 expression/protein accumulation in leaves” value (PR-1; roots treated with 0.01 μM by immersion, leaves SA 250 μM, 48 h) of the same compound?
The value was “enhance SA-mediated induction of PR-1 expression/protein accumulation; also recorded: enhanced induction by SA of PR-1 transcript”.

“Also recorded” adds a separate entry of the source.
